Experimental findings from publication PMC5458644 (Neoplasia (New York, N.Y.), 2017) are described below.

The test system of the assay is human tumor-infiltrating lymphocytes (TILs). The assay is described as follows: Ex vivo assay of disaggregated resected NSCLC tumors, γ-interferon ELISA. The class given is cell-based. The conditions noted are these: rh-IL-2 6000 U/ml; 3 days culture. For orientation: An ELISA detects its analyte on a solid surface through an enzyme-linked reagent.

Regarding “IL-2: recombinant human IL-2 added at seeding (6000 U/ml)”, the “T-cell activity (γ-interferon) with IL-2 alone” value is “little to no activity”.
